# scFv variants of Ab-14 (light chain) against a SARS-CoV-2 spike peptide

Values reported by Engelhart et al. 2022, doi:10.1038/s41597-022-01779-4 (FLAb copy).

Target: peptide PDVDLGDISGINAS, taken from heptad repeat 2 (HR2) of SARS-CoV-2 spike.

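The starting antibody came from a phage panning campaign against this peptide. Library AAYL50 holds single substitutions and randomly drawn double and triple substitutions in the CDRs. Affinity was read by AlphaSeq, a pooled yeast mating assay with surface-displayed partners. The frequency of each diploid, read from paired DNA barcodes, reflects how well the two displayed proteins bind. Read counts were normalised to the haploid input and turned into Kd by a linear fit to BCL2-family pairs of known affinity, for each replicate. Each pool was mated in three replicate cultures.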

Each scFv is VH, a 15-residue (Gly4Ser)3 linker, VL, as in the parent Ab-14, and differs from it in the CDRs of the light chain only.
VH: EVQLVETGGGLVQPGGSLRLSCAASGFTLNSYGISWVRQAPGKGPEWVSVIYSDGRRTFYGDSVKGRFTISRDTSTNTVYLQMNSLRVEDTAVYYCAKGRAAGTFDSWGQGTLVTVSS
VL: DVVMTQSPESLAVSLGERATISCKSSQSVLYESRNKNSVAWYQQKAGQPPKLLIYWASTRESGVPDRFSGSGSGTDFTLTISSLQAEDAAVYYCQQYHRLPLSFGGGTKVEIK

Substitutions are numbered in sequence along the VL above, starting at 1 (not Kabat).
Numbers give log10(Kd / nM), so 0 is 1 nM and 3 is 1 µM. Smaller is tighter.
Averages over replicates are reported, and they cover detected replicates only.
A pair that was not seen in that replicate is written "ND"; this usually means weak binding, but a binder can also be missed.

| changes | log10 Kd, replicates | mean log10 Kd (nM) | control signals |
|---|---|---|---|
| E32N/A57V/L100C | ND ND ND | ND | 1 of 9 (3.70) |
| V29I/S58P/L100G | ND ND ND | ND | 1 of 9 (5.37) |
| S28C/N37D/Q96T | 3.72 ND 4.24 | 3.98 | 3 of 9 (3.94) |
| E32S/Q96V/L102R | 4.62 ND 4.87 | 4.74 | 3 of 9 (4.00) |
| N35Q/Y97E/H98E | ND ND ND | ND | 0 of 9 |
| S26M/Q27C/A40N | 6.03 ND ND | 6.03 | 2 of 9 (4.74) |
| K24N/S33D/N37F | 1.09 1.20 1.32 | 1.20 | 1 of 9 (5.62) |
| Q27S/S28L/R34S | 0.65 0.88 0.80 | 0.78 | 4 of 9 (4.43) |
| R34Y/S38D/S58H | 1.68 1.65 1.78 | 1.70 | 2 of 9 (3.67) |
| S26R/K36R/L100N | ND 2.64 ND | 2.64 | 0 of 9 |
| T59I/E61P/Q95K | ND ND ND | ND | 0 of 9 |
| Y31W/R34Q/S62C | 1.18 1.20 1.15 | 1.17 | 3 of 9 (4.24) |
| S28D/Y31W/H98Q | 0.72 0.87 0.89 | 0.83 | 0 of 9 |
| Q95R/L100H/L102Y | ND ND ND | ND | 0 of 9 |
| S25N/S26W/Q96V | 2.26 2.21 4.25 | 2.91 | 1 of 9 (4.13) |
| L30F/Y31H/R60D | ND ND ND | ND | 1 of 9 (4.12) |
| S26H/S28D/P101C | 4.02 3.18 3.12 | 3.44 | 3 of 9 (3.63) |
| W56P/S103K | 2.42 2.02 2.54 | 2.33 | 3 of 9 (4.25) |
| N35C/R60M/L100W | ND ND 4.42 | 4.42 | 2 of 9 (3.57) |
| S25P/S58E/Q96I | ND ND ND | ND | 0 of 9 |
| S25R/Q27A/S58D | 3.66 1.93 3.69 | 3.09 | 0 of 9 |
| S28Q/Y31E/E61Y | 3.03 3.64 3.88 | 3.52 | 0 of 9 |
| S28F/N37K/A57G | 2.06 2.00 2.63 | 2.23 | 0 of 9 |
| V29C/S62A/L102C | 3.51 ND ND | 3.51 | 1 of 9 (3.48) |
| Y31M/N37G/R99P | 5.52 3.10 4.55 | 4.39 | 4 of 9 (4.26) |
| N37T/S62C/P101F | 6.18 4.37 ND | 5.27 | 5 of 9 (4.46) |
| S25M/R34S/V39A | ND ND 3.19 | 3.19 | 0 of 9 |
| V29M/K36L/V39P | 4.15 5.32 5.01 | 4.83 | 3 of 9 (3.90) |
| S33D/K36D/Y97A | ND 4.78 ND | 4.78 | 2 of 9 (2.67) |
| S25W/A40W/T59S | ND ND ND | ND | 0 of 9 |
| K24W/W56V/H98D | ND ND ND | ND | 0 of 9 |
| S26Q/L30G/E32W | 1.71 1.64 1.69 | 1.68 | 2 of 9 (4.66) |
| S25R/A57P/L100F | ND ND ND | ND | 1 of 9 (4.90) |
| S25E/V39S/S58V | 3.77 2.66 ND | 3.22 | 2 of 9 (4.66) |
| A40K/Q95H/L100F | ND 4.90 ND | 4.90 | 5 of 9 (4.16) |
| S25E/S26K/L100H | 3.45 2.15 2.46 | 2.69 | 2 of 9 (4.84) |
| K36Y/A40K/S58G | 4.43 5.38 ND | 4.91 | 1 of 9 (4.35) |
| E32S/R99H/L100C | 0.82 0.93 0.94 | 0.89 | 3 of 9 (4.00) |
| S33Y/K36A/S38N | 1.06 0.35 0.82 | 0.74 | 0 of 9 |
| A57N/T59R/L102Y | ND ND ND | ND | 1 of 9 (4.58) |

Extract of 3 entries:

changes,"log10 Kd, replicates",mean log10 Kd (nM),control signals
L30F/Y31H/R60D,ND ND ND,ND,1 of 9 (4.12)
E32S/R99H/L100C,0.82 0.93 0.94,0.89,3 of 9 (4.00)
T59I/E61P/Q95K,ND ND ND,ND,0 of 9

Empty control strains, which show no peptide, gave a signal in 18% of pairings with library AAYL50; the median was 4.19 and 95% of these signals were weaker than 2.99. No background was subtracted. Also given: how often the same scFv was detected with the empty control strains, with their mean in brackets.